Measured values reported in patent US9995734B2, “Human T cell line assay for evaluating the immunologic identity of glatiramer acetate preparations” (Mylan Inc., priority 2013, dated 2018).

System: Donor 2 T-Cell Line 206-1A7
Conditions: Day 88, B-LCL, four days

## glatiramer acetate [GMA]
  TNF-α secretion by ELISA: not detectable
